# In patent EP1077966B1, “BIPHENYL SULFONYL ARYL CARBOXYLIC ACIDS USEFUL IN THE TREATMENT OF INSULIN RESISTANCE AND HYPERGLYCEMIA” (Wyeth, priority 1998, dated 1999):
# The chains behind the UniProt entries cited, without tags or fusion partners. Where a name states a change or a piece, a line headed by the entry shows the natural chain unless it says otherwise.
# UniProt P18031: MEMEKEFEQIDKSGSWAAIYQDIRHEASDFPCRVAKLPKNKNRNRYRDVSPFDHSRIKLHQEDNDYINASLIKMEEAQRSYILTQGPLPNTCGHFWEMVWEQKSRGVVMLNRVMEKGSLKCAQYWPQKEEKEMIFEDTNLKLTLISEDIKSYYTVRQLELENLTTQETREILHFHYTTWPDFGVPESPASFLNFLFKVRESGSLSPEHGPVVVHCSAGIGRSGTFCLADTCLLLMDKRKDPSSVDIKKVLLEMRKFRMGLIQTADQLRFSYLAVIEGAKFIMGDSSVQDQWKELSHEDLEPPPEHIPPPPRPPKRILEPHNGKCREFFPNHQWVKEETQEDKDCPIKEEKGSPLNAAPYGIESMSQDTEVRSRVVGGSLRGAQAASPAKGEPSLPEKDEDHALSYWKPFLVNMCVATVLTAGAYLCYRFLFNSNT
# Target: Human recombinant PTP1B (Homo sapiens, UniProt P18031)
# Experiment: Inhibition of tri-phosphorylated insulin receptor dodecaphosphopeptide dephosphorylation by hPTP1B (malachite green-ammonium molybdate phosphate detection)
# Format: biochemical
# Conditions: substrate phosphotyrosyl dodecapeptide TRDIYETDYYRK (insulin receptor 1142-1153), 37°C, 30 min, pH 7.4
substance,measurement,value
Ammonium molybdate tetrahydrate,IC50,8.7 µM
